Source: ChEMBL document CHEMBL1132075, “Enantio- and diastereocontrolled dopamine D1, D2, D3 and D4 receptor binding of N-(3-pyrrolidinylmethyl)benzamides synthesized from aspartic acid” (Bioorg Med Chem Lett, 1999)

The chains behind the UniProt entries cited, without tags or fusion partners.
UniProt P21917, whole entry: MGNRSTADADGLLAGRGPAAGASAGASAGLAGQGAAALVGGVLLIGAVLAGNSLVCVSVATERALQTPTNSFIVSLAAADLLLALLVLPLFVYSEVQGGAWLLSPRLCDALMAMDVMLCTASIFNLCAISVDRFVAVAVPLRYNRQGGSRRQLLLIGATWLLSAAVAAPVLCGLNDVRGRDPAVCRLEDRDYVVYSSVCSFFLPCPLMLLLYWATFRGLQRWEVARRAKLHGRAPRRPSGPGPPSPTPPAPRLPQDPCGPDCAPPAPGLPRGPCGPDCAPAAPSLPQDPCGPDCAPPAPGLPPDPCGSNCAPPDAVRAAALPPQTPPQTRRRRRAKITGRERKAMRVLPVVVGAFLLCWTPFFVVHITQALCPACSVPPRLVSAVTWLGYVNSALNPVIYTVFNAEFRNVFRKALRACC

Target: D(4) dopamine receptor (Homo sapiens, UniProt P21917)
Assay: Binding affinity towards human Dopamine receptor D4 by [3H]spiperone displacement.

Ki: 2100 nM
SMILES: CCN1CCC[C@H]1CNC(=O)c1cc(S(N)(=O)=O)ccc1OC [LEVOSULPIRIDE]
